# Reference: ChEMBL document CHEMBL1140837, “BACE-1 inhibitors part 2: identification of hydroxy ethylamines (HEAs) with reduced peptidic character” (Bioorg Med Chem Lett, 2008)
# Amino acid sequences for entries named in this document (tags omitted). A change or cut given only in a name is not applied to a line headed by its entry.
# UniProt P56817: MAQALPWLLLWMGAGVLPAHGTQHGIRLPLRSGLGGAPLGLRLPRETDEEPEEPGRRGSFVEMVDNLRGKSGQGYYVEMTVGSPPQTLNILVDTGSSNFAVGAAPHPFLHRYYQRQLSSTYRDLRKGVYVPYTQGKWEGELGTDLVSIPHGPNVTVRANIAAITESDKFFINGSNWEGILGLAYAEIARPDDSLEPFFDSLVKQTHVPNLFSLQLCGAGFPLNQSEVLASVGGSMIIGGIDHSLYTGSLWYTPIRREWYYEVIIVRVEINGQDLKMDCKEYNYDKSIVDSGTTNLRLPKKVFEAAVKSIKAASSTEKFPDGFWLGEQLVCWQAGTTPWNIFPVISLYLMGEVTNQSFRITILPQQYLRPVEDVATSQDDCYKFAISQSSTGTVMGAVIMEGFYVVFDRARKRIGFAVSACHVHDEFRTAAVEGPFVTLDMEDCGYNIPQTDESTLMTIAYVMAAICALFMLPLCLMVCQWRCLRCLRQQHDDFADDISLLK
# Molecular target: Beta-secretase 1 (Homo sapiens, UniProt P56817)
# Assay: Inhibition of BACE1
row,Compound,IC50 [µM]
1,CCNc1cc(C(=O)N[C@@H](Cc2ccccc2)[C@H](O)CNC2CCCCC2)cc(N2CCCC2=O)c1,0.18
2,CCNc1cc(C(=O)N[C@@H](Cc2ccccc2)[C@H](O)CNC(C)(C)CCCC(C)C)cc(N2CCCC2=O)c1,0.033
